Measurements published in paper PMC8550792, “Evolution of kinase polypharmacology across HSP90 drug discovery” (Cell Chemical Biology, 2021).
Values joined by “and” are separate entries in the source; they are usually repeats but may differ in a detail not shown here. Equal entries are not always repeated.

The chains behind the UniProt entries cited, without tags or fusion partners. Where a name states a change or a piece, a line headed by the entry shows the natural chain unless it says otherwise. Residues count along the entry.
UniProt P51451: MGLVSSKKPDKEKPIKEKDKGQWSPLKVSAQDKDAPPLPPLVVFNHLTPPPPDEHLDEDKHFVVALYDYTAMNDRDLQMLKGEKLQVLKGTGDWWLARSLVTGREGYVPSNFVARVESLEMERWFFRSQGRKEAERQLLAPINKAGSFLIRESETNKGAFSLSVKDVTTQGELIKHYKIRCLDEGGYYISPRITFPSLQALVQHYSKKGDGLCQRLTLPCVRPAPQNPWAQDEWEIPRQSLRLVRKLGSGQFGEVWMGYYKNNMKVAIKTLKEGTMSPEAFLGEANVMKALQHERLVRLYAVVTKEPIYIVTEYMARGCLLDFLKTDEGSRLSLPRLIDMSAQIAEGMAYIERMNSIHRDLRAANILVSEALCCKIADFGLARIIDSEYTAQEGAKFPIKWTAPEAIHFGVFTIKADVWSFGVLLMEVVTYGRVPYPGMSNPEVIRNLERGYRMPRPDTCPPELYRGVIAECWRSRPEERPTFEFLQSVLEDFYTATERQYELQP
UniProt P06239: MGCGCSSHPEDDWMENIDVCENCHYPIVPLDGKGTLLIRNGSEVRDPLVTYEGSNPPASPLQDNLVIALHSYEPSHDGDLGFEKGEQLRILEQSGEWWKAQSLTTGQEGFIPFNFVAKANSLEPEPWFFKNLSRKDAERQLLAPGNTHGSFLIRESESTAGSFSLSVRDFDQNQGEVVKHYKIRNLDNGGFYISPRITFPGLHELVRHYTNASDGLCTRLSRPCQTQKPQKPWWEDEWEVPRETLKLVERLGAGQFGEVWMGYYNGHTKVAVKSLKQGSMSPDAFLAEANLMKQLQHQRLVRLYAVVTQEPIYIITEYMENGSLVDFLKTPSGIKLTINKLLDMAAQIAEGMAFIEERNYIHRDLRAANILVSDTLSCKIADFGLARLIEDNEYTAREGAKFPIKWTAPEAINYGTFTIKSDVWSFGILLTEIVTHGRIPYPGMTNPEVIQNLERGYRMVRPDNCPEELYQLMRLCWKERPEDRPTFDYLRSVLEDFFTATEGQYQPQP
UniProt P42684, whole entry: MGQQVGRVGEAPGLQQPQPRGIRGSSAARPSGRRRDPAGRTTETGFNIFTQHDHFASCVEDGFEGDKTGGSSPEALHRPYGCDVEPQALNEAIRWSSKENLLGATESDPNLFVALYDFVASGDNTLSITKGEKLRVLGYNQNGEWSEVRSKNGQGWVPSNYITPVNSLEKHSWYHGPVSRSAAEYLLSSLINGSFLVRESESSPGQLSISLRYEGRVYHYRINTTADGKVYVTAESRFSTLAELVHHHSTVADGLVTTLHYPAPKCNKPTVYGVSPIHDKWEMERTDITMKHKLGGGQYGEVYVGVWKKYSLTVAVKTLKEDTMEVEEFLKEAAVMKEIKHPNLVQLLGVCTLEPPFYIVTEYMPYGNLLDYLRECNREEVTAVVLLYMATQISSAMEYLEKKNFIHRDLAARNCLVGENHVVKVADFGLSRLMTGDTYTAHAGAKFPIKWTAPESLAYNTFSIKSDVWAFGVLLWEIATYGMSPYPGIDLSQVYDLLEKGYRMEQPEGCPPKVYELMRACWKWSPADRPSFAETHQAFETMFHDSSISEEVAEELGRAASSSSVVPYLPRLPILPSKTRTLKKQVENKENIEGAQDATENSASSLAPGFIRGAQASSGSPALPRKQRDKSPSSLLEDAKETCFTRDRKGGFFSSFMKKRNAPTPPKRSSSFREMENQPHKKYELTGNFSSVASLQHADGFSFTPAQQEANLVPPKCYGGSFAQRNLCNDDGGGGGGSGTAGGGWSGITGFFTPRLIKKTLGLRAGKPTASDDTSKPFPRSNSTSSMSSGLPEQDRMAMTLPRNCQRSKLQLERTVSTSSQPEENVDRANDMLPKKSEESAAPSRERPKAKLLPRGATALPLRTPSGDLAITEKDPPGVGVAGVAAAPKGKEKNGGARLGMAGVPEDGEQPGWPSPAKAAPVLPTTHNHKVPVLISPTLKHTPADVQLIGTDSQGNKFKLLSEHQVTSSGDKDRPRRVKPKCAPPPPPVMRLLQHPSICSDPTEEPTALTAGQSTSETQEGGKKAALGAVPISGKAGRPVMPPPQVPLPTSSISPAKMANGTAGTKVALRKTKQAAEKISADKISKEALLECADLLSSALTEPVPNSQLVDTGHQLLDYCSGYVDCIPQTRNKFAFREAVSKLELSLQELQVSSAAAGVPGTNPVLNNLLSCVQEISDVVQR
UniProt Q16654, whole entry: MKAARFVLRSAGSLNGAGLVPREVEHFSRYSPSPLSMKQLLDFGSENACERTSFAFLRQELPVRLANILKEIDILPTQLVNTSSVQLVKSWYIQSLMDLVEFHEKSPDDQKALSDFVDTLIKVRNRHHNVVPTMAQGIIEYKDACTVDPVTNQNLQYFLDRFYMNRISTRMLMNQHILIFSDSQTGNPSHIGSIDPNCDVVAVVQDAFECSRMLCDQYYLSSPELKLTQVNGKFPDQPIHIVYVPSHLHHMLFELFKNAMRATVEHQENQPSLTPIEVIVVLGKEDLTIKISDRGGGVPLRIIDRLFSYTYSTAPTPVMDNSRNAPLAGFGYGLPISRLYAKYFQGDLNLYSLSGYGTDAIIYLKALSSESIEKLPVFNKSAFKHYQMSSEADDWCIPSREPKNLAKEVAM
UniProt Q08345, 19-913: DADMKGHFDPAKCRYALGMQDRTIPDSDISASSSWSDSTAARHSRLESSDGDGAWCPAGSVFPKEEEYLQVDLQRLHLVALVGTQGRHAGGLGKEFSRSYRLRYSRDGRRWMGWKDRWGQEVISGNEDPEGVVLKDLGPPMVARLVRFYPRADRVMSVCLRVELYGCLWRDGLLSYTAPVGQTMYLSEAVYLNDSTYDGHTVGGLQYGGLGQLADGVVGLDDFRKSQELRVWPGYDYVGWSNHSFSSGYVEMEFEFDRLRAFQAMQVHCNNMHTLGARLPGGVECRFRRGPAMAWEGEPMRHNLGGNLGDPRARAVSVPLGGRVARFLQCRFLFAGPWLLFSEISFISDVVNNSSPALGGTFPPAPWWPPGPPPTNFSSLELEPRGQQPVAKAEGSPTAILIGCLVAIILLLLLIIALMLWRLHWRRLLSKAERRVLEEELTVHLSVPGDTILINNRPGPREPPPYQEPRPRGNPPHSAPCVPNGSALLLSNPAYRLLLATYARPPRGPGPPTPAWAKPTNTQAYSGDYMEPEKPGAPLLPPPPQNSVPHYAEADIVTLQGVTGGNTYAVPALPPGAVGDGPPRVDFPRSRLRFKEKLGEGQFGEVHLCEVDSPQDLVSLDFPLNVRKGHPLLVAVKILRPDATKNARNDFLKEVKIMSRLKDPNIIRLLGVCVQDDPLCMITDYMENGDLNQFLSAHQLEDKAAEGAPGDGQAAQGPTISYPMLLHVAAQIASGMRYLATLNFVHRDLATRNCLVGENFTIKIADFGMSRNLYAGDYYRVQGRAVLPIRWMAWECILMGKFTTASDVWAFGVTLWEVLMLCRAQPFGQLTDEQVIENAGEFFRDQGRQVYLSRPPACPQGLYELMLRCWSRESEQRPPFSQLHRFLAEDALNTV
UniProt P00519, whole entry: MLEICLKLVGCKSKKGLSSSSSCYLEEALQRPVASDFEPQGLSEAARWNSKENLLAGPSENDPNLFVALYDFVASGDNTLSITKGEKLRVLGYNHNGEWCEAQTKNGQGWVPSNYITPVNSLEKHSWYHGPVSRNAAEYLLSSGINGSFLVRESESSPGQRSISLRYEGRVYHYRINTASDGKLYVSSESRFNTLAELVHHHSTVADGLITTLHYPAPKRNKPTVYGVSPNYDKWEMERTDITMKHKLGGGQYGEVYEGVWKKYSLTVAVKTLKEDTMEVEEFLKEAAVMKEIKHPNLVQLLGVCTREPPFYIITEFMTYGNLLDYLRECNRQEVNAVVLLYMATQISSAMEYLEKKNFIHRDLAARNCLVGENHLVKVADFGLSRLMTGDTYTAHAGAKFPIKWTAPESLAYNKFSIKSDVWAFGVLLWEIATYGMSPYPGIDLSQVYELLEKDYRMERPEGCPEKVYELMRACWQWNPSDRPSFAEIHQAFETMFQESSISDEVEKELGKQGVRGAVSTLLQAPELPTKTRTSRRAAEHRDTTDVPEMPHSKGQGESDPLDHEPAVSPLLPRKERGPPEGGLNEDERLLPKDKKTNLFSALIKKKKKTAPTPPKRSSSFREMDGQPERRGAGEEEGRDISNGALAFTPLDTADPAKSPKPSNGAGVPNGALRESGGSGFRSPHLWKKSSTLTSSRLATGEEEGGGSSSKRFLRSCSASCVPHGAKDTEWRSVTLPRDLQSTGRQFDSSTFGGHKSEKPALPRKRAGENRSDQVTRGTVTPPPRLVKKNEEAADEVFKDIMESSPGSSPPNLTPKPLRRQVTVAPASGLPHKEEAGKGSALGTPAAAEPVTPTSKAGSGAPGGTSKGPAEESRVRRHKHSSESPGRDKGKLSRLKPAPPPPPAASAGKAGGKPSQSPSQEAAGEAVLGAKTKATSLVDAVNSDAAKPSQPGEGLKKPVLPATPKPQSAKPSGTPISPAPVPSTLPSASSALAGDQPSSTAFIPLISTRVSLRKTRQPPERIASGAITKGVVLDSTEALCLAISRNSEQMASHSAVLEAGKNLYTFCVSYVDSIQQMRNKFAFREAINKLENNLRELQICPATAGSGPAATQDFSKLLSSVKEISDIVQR
UniProt P07948, 1-491 isoform P07948-2: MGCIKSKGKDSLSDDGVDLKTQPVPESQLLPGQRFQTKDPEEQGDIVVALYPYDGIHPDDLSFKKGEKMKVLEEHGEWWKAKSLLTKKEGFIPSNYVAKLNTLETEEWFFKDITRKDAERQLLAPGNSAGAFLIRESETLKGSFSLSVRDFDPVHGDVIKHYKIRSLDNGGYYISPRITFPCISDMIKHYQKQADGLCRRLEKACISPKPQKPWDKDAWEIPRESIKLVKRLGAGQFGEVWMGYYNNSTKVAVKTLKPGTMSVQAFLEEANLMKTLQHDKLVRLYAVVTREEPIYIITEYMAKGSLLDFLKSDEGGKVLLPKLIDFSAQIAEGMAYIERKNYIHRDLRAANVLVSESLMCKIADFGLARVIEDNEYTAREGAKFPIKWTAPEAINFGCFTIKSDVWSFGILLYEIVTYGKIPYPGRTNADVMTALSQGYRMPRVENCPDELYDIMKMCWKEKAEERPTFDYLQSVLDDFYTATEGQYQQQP
UniProt P04629, 33-796: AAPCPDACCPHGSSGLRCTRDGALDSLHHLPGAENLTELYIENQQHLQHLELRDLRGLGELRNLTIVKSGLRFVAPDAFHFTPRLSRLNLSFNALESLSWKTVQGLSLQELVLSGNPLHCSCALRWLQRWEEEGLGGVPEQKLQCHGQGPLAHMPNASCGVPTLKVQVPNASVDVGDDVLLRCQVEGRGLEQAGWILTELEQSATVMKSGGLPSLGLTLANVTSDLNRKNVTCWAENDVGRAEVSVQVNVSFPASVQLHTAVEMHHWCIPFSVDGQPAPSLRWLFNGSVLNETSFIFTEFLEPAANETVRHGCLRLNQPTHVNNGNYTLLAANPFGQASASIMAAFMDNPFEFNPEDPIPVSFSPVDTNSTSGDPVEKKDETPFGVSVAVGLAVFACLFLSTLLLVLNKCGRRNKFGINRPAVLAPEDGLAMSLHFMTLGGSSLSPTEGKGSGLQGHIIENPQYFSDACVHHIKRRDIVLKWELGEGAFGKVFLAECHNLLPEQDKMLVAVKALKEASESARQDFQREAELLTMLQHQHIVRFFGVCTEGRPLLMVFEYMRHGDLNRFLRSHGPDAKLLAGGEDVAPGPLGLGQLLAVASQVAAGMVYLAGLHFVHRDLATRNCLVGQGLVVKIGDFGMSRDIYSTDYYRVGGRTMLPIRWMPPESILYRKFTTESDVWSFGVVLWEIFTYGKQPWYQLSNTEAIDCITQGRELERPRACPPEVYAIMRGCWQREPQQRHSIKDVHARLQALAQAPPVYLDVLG
UniProt P07947, whole entry: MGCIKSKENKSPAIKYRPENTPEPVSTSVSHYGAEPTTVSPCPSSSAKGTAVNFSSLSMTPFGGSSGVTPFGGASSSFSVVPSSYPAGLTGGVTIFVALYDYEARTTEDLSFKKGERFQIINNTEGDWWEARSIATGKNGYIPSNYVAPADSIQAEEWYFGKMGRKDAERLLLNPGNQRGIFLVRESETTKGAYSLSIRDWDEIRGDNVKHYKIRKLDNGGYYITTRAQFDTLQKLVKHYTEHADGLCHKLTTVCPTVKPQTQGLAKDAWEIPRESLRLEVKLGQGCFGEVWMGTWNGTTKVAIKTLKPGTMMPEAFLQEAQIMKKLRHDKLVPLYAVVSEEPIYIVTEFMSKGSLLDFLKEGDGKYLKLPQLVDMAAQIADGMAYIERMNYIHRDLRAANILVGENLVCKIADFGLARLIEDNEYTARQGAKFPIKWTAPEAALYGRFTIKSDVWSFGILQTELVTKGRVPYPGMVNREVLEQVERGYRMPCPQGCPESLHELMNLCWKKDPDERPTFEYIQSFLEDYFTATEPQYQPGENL

Columns and labels:
HSP90AA1 = conditions: average of reported values; ref ChEMBL23 (accessed: 23/08/2018); cited from earlier work
BLK = target: T1, BLK (Homo sapiens, UniProt P51451); assay: HotSpot in vitro kinase radiometric assay; type: biochemical; conditions: 10uM, ATP 10 uM, Data 1, Data 2
T1 construct: purchased Reaction Biology (HotSpot contract assay)

PASK = target: T2, PASK (Homo sapiens, UniProt Q96RG2); assay: HotSpot in vitro kinase radiometric assay; type: biochemical; conditions: 10uM, ATP 50 uM, Data 1, Data 2
T2 construct: purchased Reaction Biology (HotSpot contract assay)

LCK = target: T3, LCK (Homo sapiens, UniProt P06239); assay: HotSpot in vitro kinase radiometric assay; type: biochemical; conditions: 10uM, ATP 15 uM, Data 1, Data 2
T3 construct: purchased Reaction Biology (HotSpot contract assay)

CBR1 = conditions: average of reported values; ref ChEMBL23 (accessed: 23/08/2018); cited from earlier work
FGR = target: T4, FGR (Homo sapiens, UniProt P09769); assay: HotSpot in vitro kinase radiometric assay; type: biochemical; conditions: 10uM, ATP 50 uM, Data 1, Data 2
T4 construct: purchased Reaction Biology (HotSpot contract assay)

ABL2/ARG = target: T5, ABL2/ARG (Homo sapiens, UniProt P42684); assay: HotSpot in vitro kinase radiometric assay; type: biochemical; conditions: 10uM, ATP 30 uM, Data 1, Data 2
T5 construct: purchased Reaction Biology (HotSpot contract assay)

FYN = target: T6, FYN (Homo sapiens, UniProt P06241); assay: HotSpot in vitro kinase radiometric assay; type: biochemical; conditions: 10uM, ATP 30 uM, Data 1, Data 2
T6 construct: purchased Reaction Biology (HotSpot contract assay)

PDK4/PDKH4 = target: T7, PDK4/PDKH4 (Homo sapiens, UniProt Q16654); assay: HotSpot in vitro kinase radiometric assay; type: biochemical; conditions: ATP 30 uM
T7 construct: purchased Reaction Biology (HotSpot contract assay)

PEAK1 = target: T8, PEAK1 (Homo sapiens, UniProt Q9H792); assay: HotSpot in vitro kinase radiometric assay; type: biochemical; conditions: 10uM, ATP 30 uM, Data 1, Data 2
T8 construct: purchased Reaction Biology (HotSpot contract assay)

HSP90AB1 = conditions: average of reported values; ref ChEMBL23 (accessed: 23/08/2018); cited from earlier work
TRKC = target: T9, TRKC (Homo sapiens, UniProt Q16288); assay: HotSpot in vitro kinase radiometric assay; type: biochemical; conditions: 10uM, ATP 100 uM, Data 1, Data 2
T9 construct: purchased Reaction Biology (HotSpot contract assay)
T9 sequence (Q16288 32-839): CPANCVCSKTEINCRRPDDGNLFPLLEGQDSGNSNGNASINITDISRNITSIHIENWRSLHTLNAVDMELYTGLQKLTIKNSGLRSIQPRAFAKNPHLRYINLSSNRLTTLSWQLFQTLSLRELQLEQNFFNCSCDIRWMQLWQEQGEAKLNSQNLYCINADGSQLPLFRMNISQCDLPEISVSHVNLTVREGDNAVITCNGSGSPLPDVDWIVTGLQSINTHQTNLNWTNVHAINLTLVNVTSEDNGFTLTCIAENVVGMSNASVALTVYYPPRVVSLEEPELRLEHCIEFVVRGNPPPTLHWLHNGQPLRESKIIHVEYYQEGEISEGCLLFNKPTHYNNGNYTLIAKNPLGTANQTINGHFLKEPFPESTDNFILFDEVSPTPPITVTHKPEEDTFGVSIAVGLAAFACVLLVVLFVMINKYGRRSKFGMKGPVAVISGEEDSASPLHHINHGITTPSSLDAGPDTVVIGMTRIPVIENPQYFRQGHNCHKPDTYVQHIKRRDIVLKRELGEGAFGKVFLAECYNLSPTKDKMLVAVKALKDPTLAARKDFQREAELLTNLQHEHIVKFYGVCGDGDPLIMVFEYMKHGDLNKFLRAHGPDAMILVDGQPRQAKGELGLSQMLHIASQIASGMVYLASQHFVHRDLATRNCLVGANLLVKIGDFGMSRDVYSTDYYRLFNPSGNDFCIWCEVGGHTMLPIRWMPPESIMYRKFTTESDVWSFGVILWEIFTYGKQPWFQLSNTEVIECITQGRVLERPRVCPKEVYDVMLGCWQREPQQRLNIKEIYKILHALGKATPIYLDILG

c-Src = target: T10, c-Src (Homo sapiens, UniProt P12931); assay: HotSpot in vitro kinase radiometric assay; type: biochemical; conditions: 10uM, ATP 15 uM, Data 1, Data 2
T10 construct: purchased Reaction Biology (HotSpot contract assay)

DDR1 = DDR1 (Homo sapiens, UniProt Q08345); assay: HotSpot in vitro kinase radiometric assay; type: biochemical; parameters: purchased Reaction Biology (HotSpot contract assay); conditions: 10uM, ATP 100 uM, Data 1, Data 2
ABL1 = ABL1 (Homo sapiens, UniProt P00519); assay: HotSpot in vitro kinase radiometric assay; type: biochemical; parameters: purchased Reaction Biology (HotSpot contract assay); conditions: 10uM, ATP 40 uM, Data 1, Data 2
LYN B = target: T11, LYN B (Homo sapiens, UniProt P07948); assay: HotSpot in vitro kinase radiometric assay; type: biochemical; conditions: 10uM, ATP 20 uM, Data 1, Data 2
T11 construct: purchased Reaction Biology (HotSpot contract assay)

TRKA = target: T12, TRKA (Homo sapiens, UniProt P04629); assay: HotSpot in vitro kinase radiometric assay; type: biochemical; conditions: 10uM, ATP 100 uM, Data 1, Data 2
T12 construct: purchased Reaction Biology (HotSpot contract assay)

YES/YES1 = target: T13, YES/YES1 (Homo sapiens, UniProt P07947); assay: HotSpot in vitro kinase radiometric assay; type: biochemical; conditions: 10uM, ATP 50 uM, Data 1, Data 2
T13 construct: purchased Reaction Biology (HotSpot contract assay)

PDK2/PDHK2 = target: T14, PDK2/PDHK2 (Homo sapiens, UniProt Q15119); assay: HotSpot in vitro kinase radiometric assay; type: biochemical; conditions: 10uM, ATP 15 uM, Data 1, Data 2
T14 construct: purchased Reaction Biology (HotSpot contract assay)

382 unique human kinases = target: T15, 382 unique human kinases (Homo sapiens, UniProt Q9NZJ5); conditions: read-out: Control Compound IC50*; EIF2AK3
T15 sequence (Q9NZJ5 30-1116): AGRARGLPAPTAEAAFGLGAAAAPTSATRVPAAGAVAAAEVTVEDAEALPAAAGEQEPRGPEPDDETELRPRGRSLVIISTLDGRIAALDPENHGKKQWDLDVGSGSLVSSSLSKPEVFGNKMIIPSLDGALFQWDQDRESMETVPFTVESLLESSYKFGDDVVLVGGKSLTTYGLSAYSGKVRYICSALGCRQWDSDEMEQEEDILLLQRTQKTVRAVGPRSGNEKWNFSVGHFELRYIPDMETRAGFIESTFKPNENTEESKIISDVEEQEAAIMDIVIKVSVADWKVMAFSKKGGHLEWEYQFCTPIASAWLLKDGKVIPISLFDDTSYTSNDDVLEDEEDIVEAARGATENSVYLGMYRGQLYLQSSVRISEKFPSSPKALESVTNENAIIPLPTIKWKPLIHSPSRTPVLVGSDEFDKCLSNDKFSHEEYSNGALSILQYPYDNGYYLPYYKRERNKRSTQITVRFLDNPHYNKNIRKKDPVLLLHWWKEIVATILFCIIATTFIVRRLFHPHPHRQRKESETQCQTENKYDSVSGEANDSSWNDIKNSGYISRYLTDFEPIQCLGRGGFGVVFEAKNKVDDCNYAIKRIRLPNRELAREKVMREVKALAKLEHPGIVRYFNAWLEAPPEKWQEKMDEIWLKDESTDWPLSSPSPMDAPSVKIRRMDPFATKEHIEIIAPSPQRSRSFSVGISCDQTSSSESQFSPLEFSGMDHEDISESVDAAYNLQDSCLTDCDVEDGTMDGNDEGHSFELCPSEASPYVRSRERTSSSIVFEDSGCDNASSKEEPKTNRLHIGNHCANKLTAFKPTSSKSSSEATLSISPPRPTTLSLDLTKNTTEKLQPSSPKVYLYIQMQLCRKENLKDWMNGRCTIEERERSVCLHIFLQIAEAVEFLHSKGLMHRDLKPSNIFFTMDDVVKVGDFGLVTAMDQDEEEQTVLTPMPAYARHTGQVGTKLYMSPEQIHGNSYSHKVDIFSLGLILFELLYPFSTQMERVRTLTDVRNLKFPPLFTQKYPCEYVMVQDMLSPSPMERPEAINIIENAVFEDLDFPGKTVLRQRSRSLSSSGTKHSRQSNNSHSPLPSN

SMILES: C[C@@H]1C[C@H]2O[C@@H]2/C=C\C=C\C(=O)Cc2c(Cl)c(O)cc(O)c2C(=O)O1 [Radicicol]
- pActivity, HSP90AA1 (HSP90AA1): 7.7
- % Enzyme Activity (relative to DMSO controls) (BLK): 111.62%
- % Enzyme Activity (relative to DMSO controls) (PASK): 104.19%
- % Enzyme Activity (relative to DMSO controls) (LCK): 118%
- pActivity, CBR1 (CBR1): 5.88
- % Enzyme Activity (relative to DMSO controls) (FGR): 118%
- % Enzyme Activity (relative to DMSO controls) (ABL2/ARG): 112.62%
- % Enzyme Activity (relative to DMSO controls) (FYN): 110.97%
- % Enzyme Activity (relative to DMSO controls) (PDK4/PDKH4; 10uM, Data 1, Data 2): 99.74%
- remaining activity at 10 µM (PDK4/PDKH4; Data 1, Data 2, read-out: % Enzyme Activity (relative to DMSO controls)): 94.2%
- % Enzyme Activity (relative to DMSO controls) (PEAK1): 108.68%
- pActivity, HSP90AB1 (HSP90AB1): 7.6
- % Enzyme Activity (relative to DMSO controls) (TRKC): 97.14%
- % Enzyme Activity (relative to DMSO controls) (c-Src): 103.4%
- % Enzyme Activity (relative to DMSO controls) (DDR1): 105.98%
- % Enzyme Activity (relative to DMSO controls) (ABL1): 109.61%
- % Enzyme Activity (relative to DMSO controls) (LYN B): 115.59%
- % Enzyme Activity (relative to DMSO controls) (TRKA): 106.48%
- % Enzyme Activity (relative to DMSO controls) (YES/YES1): 104.61%
- % Enzyme Activity (relative to DMSO controls) (PDK2/PDHK2): 115.9% and 95.66%

SMILES: Cn1cc(-c2ccc3c(c2)CCN3C(=O)Cc2cccc(C(F)(F)F)c2)c2c(N)ncnc21 [GSK-2606414]
- IC50 (382 unique human kinases): 0.553 nM
